{
  "source": "patent US12202866B2",
  "about": "“Therapeutic nanoconjugates and uses thereof” (UNIVERSITAT AUTÒNOMA DE BARCELONA (UAB), priority 2017, dated 2025)",
  "key": {"[1]": {"test": "Biodistribution and toxicity in normal organs, bone marrow and circulating blood cells", "type": "in vivo, mouse", "details": "after a 100 μg dose", "method": "The T22-GFP-H6-FdU uptake measuring fluorescence emission, in bone marrow and circulating blood cells, was assessed 5 h after the administration of T22-GFP-H6-FdU at 10-100 μg doses. At necropsy, bone marrow was extracted and registered ex vivo in the IVIS® 200-Spectrum equipment. Mouse blood was collected by punction in the maxillary plexus. The erythrocytes, leucocytes and platelets were isolated by the Ficoll density gradient method using the standard protocol. Further, pellets were obtained by centrifugation of the isolated cell extracts at 600 g, 10 min and then recorded to measure fluorescence using IVIS® 200-Spectrum.\nThe T22-GFP-H6-FdU uptake was assessed by measuring the green fluorescence emitted by the GFP domain of the nanoconjugate, as well as DNA DSBs and apoptotic induction in normal (non-tumor) tissues using the methodology described above. In addition, two independent observers evaluated the possible histopathological alterations observed in H&E stained non-tumor tissue samples, searching for signs of toxicity."}, "[2]": {"test_system": "subcutaneous CXCR4^+ SW1417 CRC tumor", "test": "Tumor uptake and tumor cell internalization in subcutaneous CXCR4+ SW1417 CRC model", "details": "5 h after a 100 μg dose"}},
  "data": [
    {"substance": "T22-GFP-H6-FdU: nanoconjugate of T22-GFP-H6 protein nanoparticle covalently bound via maleimide linker to thiol-functionalized pentameric floxuridine oligonucleotide (oligo-FdU)", "values": [
      {"measurement": "uptake in CXCR4 positive (bone marrow, spleen) or CXCR4 negative (kidney, lung, brain, heart or liver) normal tissues by fluorescence emission", "setting": "[1]", "result": "undetectable, except for a transient accumulation in the liver"},
      {"measurement": "Tumor/Liver ratio of emitted fluorescence", "setting": "[2]", "result": 7.5}
    ]}
  ]
}
